For four compounds, IC50 results are on record in ChEMBL document CHEMBL1145133, “Thienyl and phenyl alpha-halomethyl ketones: new inhibitors of glycogen synthase kinase (GSK-3beta) from a library of compound searching” (J Med Chem, 2003).

Protein sequences, listed by entry. Tags and fused reporters are not part of them. Lines headed by an entry give the natural chain unless they say otherwise; changes in a name come on top.
UniProt P49841: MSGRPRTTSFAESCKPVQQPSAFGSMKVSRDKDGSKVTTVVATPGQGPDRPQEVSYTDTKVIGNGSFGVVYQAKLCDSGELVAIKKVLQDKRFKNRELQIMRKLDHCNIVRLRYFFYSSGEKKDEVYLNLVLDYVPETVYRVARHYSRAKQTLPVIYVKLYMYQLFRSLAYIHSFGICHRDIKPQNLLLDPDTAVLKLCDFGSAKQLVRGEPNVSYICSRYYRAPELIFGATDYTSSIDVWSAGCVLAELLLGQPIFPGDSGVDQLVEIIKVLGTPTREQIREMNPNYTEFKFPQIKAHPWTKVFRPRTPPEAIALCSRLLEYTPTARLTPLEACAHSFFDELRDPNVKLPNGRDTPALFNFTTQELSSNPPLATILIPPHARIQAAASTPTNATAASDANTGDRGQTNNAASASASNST

Assay [1] concerns the target Glycogen synthase kinase-3 beta (Homo sapiens, UniProt P49841). Nature of the assay: Inhibitory activity against glycogen synthase kinase-3 (GSK-3beta).
In assay [2] the target is cAMP-dependent protein kinase (PKA) (Homo sapiens, UniProt P22694+P17612+P22612). The experiment in a line: Inhibitory activity against protein kinase A (PKA ). Type of assay: protein assay.

As to `Cc1ccc(C(=O)CBr)cc1`, the IC50 in assay [1] is 2500 nM; in assay [2] it was over 100000 nM.

With `COc1ccc(C(=O)CBr)cc1`, the IC50 in assay [1] is 1000 nM; in assay [2], over 100000 nM.

In assay [1], `O=C(CBr)c1ccc([N+](=O)[O-])cc1` registered an IC50 of 2000 nM. With `O=C(CBr)c1ccc(Cl)cc1`, the IC50 in assay [1] was 1000 nM; in assay [2], over 100000 nM.
